Bioassay records (PubChem BioAssay)
The list is not random: actives were taken first. Their share in the collection is about 2.8%.
Statin myotox sup = suppression of simvastatin myotoxicity; C2C12 myotubes + simvastatin, ATP luminescence, 48 h; scaled: DMSO 0, geranylgeraniol control 100; rescue of ATP level, % at 7.49 µM; 330,000 tested, 0.78% active; AID 602340;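 active means mean ATP rescue above about 67%, or every replicate alone reaching that limit, limit read from the data, passing the limit was not always enough; inconclusive means no clear call, values can overlap the other calls; inactive means mean under the limit and some replicate under it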;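 further: myotubes were challenged with 10 µM simvastatin during compound exposure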
esBAF inh = SWI/SNF esBAF complex inhibition; mouse ES cells, Bmi1-luciferase knock-in reporter, 24 h; 100% = twice the neutral-well signal; reporter increase, % at 12.5 µM; 350,000 tested, 2% active; AID 602393; in the data active means activation above about 40%; inconclusive means no clear call, values can overlap the other calls;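 further: 0% = median of the plate's neutral control wells and 100% = double that signal; a rise in the Bmi1 reporter signal indicates esBAF inhibition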
PglD inh = inhibitors of Campylobacter jejuni PglD acetyltransferase | purified PglD enzyme, DTNB colorimetric CoA detection | inhibition, % at 12.5 µM | 360,000 tested, 0.098% active | AID 602405; in the data active means inhibition above about 16%, passing the limit was not always enough; inconclusive means no clear call, values can overlap the other calls
UUG fidelity = modulators of yeast start codon fidelity, primary screen, whole organism, S. cerevisiae, single point, plate reader. S. cerevisiae UUG-firefly luciferase reporter, luminescence/redox ratio. activity score, % at 18.7 µM. 350,000 tested, 0.13% active;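 active = replicate mean at a twofold rise or more, about +100% in these data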;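 also: firefly luciferase made from a UUG start codon reports start codon fidelity; reporter light over untreated wells divided by growth signal over untreated wells; some hits fall short of that in this replicate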
E-sel inducer = induces E-selectin expression in human endothelial cells | 260,000 tested, 0.37% active | activation, % at 7.58 µM | P16581 | HUVEC E-selectin immunofluorescence imaging; normalized: neutral wells 0, TNF-alpha wells 100;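 active means mean E-selectin-positive cell signal at least 10% of the positive control, reached in at least 60% of replicates, without over 20% cell loss; inconclusive means no rule given, readout overlaps actives, possibly toxicity-flagged; inactive means the rest, including those meeting only one limit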
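Assay system: HUVEC primary endothelial cells. Input: 3,000 HUVEC seeded per well. Doses: one compound dose added by pin transfer. Read-out basis: % PE-positive cells. Benchmarks: TNF-alpha high, DMSO low. Detection: immunofluorescence imaging. Buffer or medium: EGM-2, gelatin.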
PGC1a acetyl inh = PGC1a acetylation modulation, inhibitor mode | U2OS PGC1a acetylation, AlphaScreen anti-acetyl-lysine; with virally co-expressed GCN5 acetyltransferase | inhibition, % at 15.6 µM | 350,000 tested, 0.17% active;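 active means every replicate shows inhibition of at least 40%; inconclusive means mean inhibition at least 40% but some replicate below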;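 further: 0% = neutral control wells and 100% = positive control wells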
The depositor's hits bear a star; ? = inconclusive; . = no result given.

mol,Statin myotox sup,esBAF inh,PglD inh,UUG fidelity,E-sel inducer,PGC1a acetyl inh
Cc1ccc(C)c(OCc2cc(C(=O)N3C[C@@H](C)O[C@@H](C)C3)no2)c1,-4.9,75.6*,-6.2,6.6,12.2,-1.9
Cc1ccc(C)c(OCc2cc(C(=O)N3CC[C@@H]4CCCC[C@H]4C3)no2)c1,-5.6,54.4*,2.9,-7.9,0.6,8.1
CCN(CCn1cccn1)C(=O)c1cc(COc2cc(C)ccc2C)on1,0.0,69.7*,-3.7,-4.2,.,.
Cc1ccc(C)c(OCc2cc(C(=O)N3CCN(C(=O)c4ccco4)CC3)no2)c1,-6.4,80.0*,5.9,-12.5,-0.2,.
Cc1ccc(C)c(OCc2cc(C(=O)N3CCN(C4CCCCC4)CC3)no2)c1,3.9,1.1,-1.7,-11.0,0.0,-4.4
CCCNC(=O)N1CC2(CCN(S(C)(=O)=O)CC2)c2c(n(C)c3cc(OC)ccc23)[C@H]1CO,.,.,.,.,0.9,-3.4
CO[C@@H]1CN(C)C(=O)c2cc(NS(=O)(=O)c3ccccc3)ccc2OC[C@H](C)N(Cc2ccccn2)C[C@H]1C,15.9,7.5,-0.1,-16.0,-0.3,-2.5
COc1cc(C)ccc1OCc1cc(C(=O)N2CCC(c3ccc(F)cc3)C2)no1 (configuration not stated),-2.4,81.7*,2.1,4.5,.,4.5
COCC1CCN(C(=O)c2cc(COc3ccc(F)cc3F)on2)C1 (configuration not stated),9.9,6.5,-2.6,0.8,.,5.2
Cc1ccc(C)c(OCc2cc(C(=O)NC3CCOC(C)(C)C3)no2)c1 (configuration not stated),-18.6,50.9*,1.4,-4.7,0.0,.
O=C(C[C@H]1CC[C@H](NC(=O)c2ccc3c(c2)OCO3)[C@@H](CO)O1)NCc1ccc(Cl)cc1,-1.5,6.8,-0.6,1.0,-0.1,0.1
O=c1cc(-c2ccccc2Cl)oc2cc(O)cc(O)c12,8.5,57.5*,-1.2,0.6,0.2,.
Cc1nnc(NC(=O)c2cccc(F)c2)s1,1.9,13.2,8.0,-18.2,.,.
CCOC(=O)CNC(=O)c1sc(NC(=O)c2ccccc2F)nc1C,-25.3,57.3*,2.7,-31.5,.,4.5
CCOC(=O)CNC(=O)c1sc(NC(=O)c2cccc(F)c2)nc1C,-14.2,54.1*,-3.4,-16.2,.,19.9
CC(=O)Cc1nsc(NC(=O)c2cccc(F)c2)n1,-5.0,61.1*,.,.,.,?
COc1ccc(S(=O)(=O)Nc2ccc3c(c2)[C@H]2C[C@H](CC(=O)O)O[C@H](CO)[C@H]2O3)cc1,0.8,6.1,-0.6,-6.6,-0.8,-4.1
Cc1ccc(NC(=O)CSc2nnc3ccccn23)c(Cl)c1,2.3,66.2*,1.5,-11.1,-0.2,-1.9
C[C@H](CO)N1C[C@H](C)[C@H](CN(C)Cc2ccc(Cl)c(Cl)c2)Oc2ccc(NC(=O)CCN3CCOCC3)cc2CC1=O,1.1,0.2,-2.1,-9.3,-3.0,7.7
COc1cccc(NC2SC(=O)N(c3ccccc3)C2=O)c1 (configuration not stated),11.0,59.2*,-6.1,-13.9,0.0,12.8
CN1C(=O)SC(Nc2ccccc2)C1=O (configuration not stated),12.2,3.4,-4.6,-8.5,.,.
CN(C)CCCNC(=O)C[C@@H]1CC[C@@H]2[C@H](COc3ccc(NC(=O)C4CCC4)cc3C(=O)N2C)O1,-1.5,5.4,-1.3,3.1,0.0,11.1
CNc1ccccc1C(C)(C)c1cc(-c2cccc(Br)c2)no1,-24.6,-79.2,5.8,-24.2,83.6*,-25.7
COc1cc(/C=N/NC(=O)c2nnn(-c3nonc3N)c2C)ccc1OCc1ccc(Cl)cc1,-38.4,56.2*,-1.3,-2.8,0.5,6.2
COc1ccc(/C=N/NC(=O)c2nnn(-c3nonc3N)c2-c2cccs2)cc1OC,10.0,3.9,4.0,-21.3,.,4.0
Nc1nonc1-n1nnc(C(=O)N/N=C/c2cccc(Cl)c2)c1-c1cccs1,72.4*,2.9,2.2,-23.9,.,1.8
C[C@H]1CN([C@@H](C)CO)C(=O)CCCn2cc(nn2)CO[C@H]1CN(C)S(=O)(=O)c1cccc(F)c1,-4.5,0.1,3.1,18.0,0.3,.
CCOC(=O)c1cnc2c(c(C3CC3)nn2C)c1N1CCOCC1,.,.,2.3,-0.1,29.0*,1.7
O=C(O)c1c2c(nc3ccccc13)/C(=C/c1ccc(OC(F)F)cc1)CCC2,5.9,58.6*,0.1,-8.2,.,.
Fc1ccc(-n2c(-c3cccs3)nc3nc4ccccc4nc32)cc1,.,.,.,.,35.9*,.
Cc1ccc(-n2c(-c3cccs3)nc3nc4ccccc4nc32)cc1,.,.,.,.,4.8,.
CO[C@H]1CC[C@@H]2CCN(C)C(=O)[C@H](C)CN(C)C(=O)c3cc(C#N)ccc3OC[C@H]1O2,-17.2,-4.9,-2.8,.,0.1,.
OC(CSc1ccccc1Cl)CN1CCN(c2ccccc2F)CC1 (configuration not stated),3.7,0.3,4.6,10.4,.,-16.8
OC(CSc1c(Cl)cccc1Cl)CN1CCN(c2ccccc2F)CC1 (configuration not stated),171.6*,-5.1,3.8,-13.5,.,1.2
CN1C(=O)c2cc(NC(=O)c3cccs3)ccc2OC[C@H]2O[C@H](CC(=O)NCC3CC3)CC[C@@H]21,23.6,0.2,-1.4,6.2,0.0,4.7
N#C[C@@H]1[C@@H](c2ccccc2-c2ccccc2)[C@@H](CO)N1C(=O)NC1CCCCC1,.,.,.,.,0.3,.

2 compounds picked at random from those above:
mol,Statin myotox sup,esBAF inh,PglD inh,UUG fidelity,E-sel inducer,PGC1a acetyl inh
Cc1ccc(-n2c(-c3cccs3)nc3nc4ccccc4nc32)cc1,.,.,.,.,4.8,.
CN1C(=O)c2cc(NC(=O)c3cccs3)ccc2OC[C@H]2O[C@H](CC(=O)NCC3CC3)CC[C@@H]21,23.6,0.2,-1.4,6.2,0.0,4.7

The list goes on.
mol,Statin myotox sup,esBAF inh,PglD inh,UUG fidelity,E-sel inducer,PGC1a acetyl inh
C[C@@H]1CN([C@@H](C)CO)C(=O)c2cc(-c3ccc(C#N)cc3)cnc2O[C@@H]1CN(C)C(=O)CC1CC1,1.8,1.1,-0.2,3.6,-0.2,-9.2
CCOC(=O)c1c(S(=O)(=O)NCc2cccs2)c(C)n(C)c1C,1.9,-0.2,-4.6,-3.8,.,-19.4
Cc1nn(C)c(C)c1S(=O)(=O)NCc1cccs1,81.9*,-2.6,-3.4,-13.8,.,-13.8
Cc1ccc(S(=O)(=O)Nc2ccc3c(c2)C(=O)N([C@H](C)CO)C[C@H](C)[C@@H](CN(C)S(C)(=O)=O)OCCCC[C@H](C)O3)cc1,.,-5.7,-1.2,14.0,-0.1,4.2
COCCn1c(N)c(C(=O)Nc2sc3c(c2C(=O)OC)CCCC3)c2nc3ccccc3nc21,99.2*,3.1,-3.8,-19.0,.,5.4
COC(=O)c1c(NC(=O)c2ccc(C)o2)sc2c1CCCCC2,0.5,62.5*,-5.4,-6.6,.,-5.3
COCCn1c(N)c(C(=O)NCC2CCCO2)c2nc3ccccc3nc21 (configuration not stated),.,.,3.3,6.1,.,-16.4
Cc1ccc(C(=O)Nc2sc3c(c2C(=O)O)CCC(C)C3)o1 (configuration not stated),5.2,48.6*,-1.1,-9.6,-2.2,-1.4
Cc1noc(C)c1S(=O)(=O)Nc1ccc2c(c1)CC(=O)N([C@@H](C)CO)C[C@H](C)[C@@H](CN(C)Cc1ccc(C(=O)Nc3ccccc3N)cc1)O2,.,.,.,.,.,-7.5

Compound profiles (already shown):
Results for Cc1noc(C)c1S(=O)(=O)Nc1ccc2c(c1)CC(=O)N([C@@H](C)CO)C[C@H](C)[C@@H](CN(C)Cc1ccc(C(=O)Nc3ccccc3N)cc1)O2 = Statin myotox sup: .; esBAF inh: .; PglD inh: .; UUG fidelity: .; E-sel inducer: .; PGC1a acetyl inh: -7.5
Results for COCCn1c(N)c(C(=O)Nc2sc3c(c2C(=O)OC)CCCC3)c2nc3ccccc3nc21 = Statin myotox sup: 99.2*; esBAF inh: 3.1; PglD inh: -3.8; UUG fidelity: -19.0; E-sel inducer: .; PGC1a acetyl inh: 5.4
